The values below are quoted from earlier work in patent US20230158116A1, “USE OF HUMAN AMYLIN ANALOG POLYPEPTIDES FOR PROVIDING SUPERIOR GLYCEMIC CONTROL TO TYPE 1 DIABETICS” (I2O Therapeutics, Inc., priority 2020, published 2023).

The conditions of the series: in humans; cited from earlier work.

As for `CC[C@H](C)[C@H](NC(=O)[C@@H]1CCCN1C(=O)CNC(=O)[C@H](Cc1ccccc1)NC(=O)[C@H](CC(N)=O)NC(=O)[C@H](CC(N)=O)NC(=O)[C@H](CO)NC(=O)[C@H](CO)NC(=O)[C@H](Cc1c[nH]cn1)NC(=O)[C@@H](NC(=O)[C@H](CC(C)C)NC(=O)[C@H](Cc1ccccc1)NC(=O)[C@H](CC(N)=O)NC(=O)[C@H](C)NC(=O)[C@H](CC(C)C)NC(=O)[C@H](CCCNC(=N)N)NC(=O)[C@H](CCC(N)=O)NC(=O)[C@@H](NC(=O)[C@H](C)NC(=O)[C@@H]1CSSC[C@H](NC(=O)[C@@H](N)CCCCN)C(=O)N[C@@H](CC(N)=O)C(=O)N[C@@H]([C@@H](C)O)C(=O)N[C@@H](C)C(=O)N[C@@H]([C@@H](C)O)C(=O)N1)[C@@H](C)O)C(C)C)C(=O)N[C@@H](CC(C)C)C(=O)N1CCC[C@H]1C(=O)N1CCC[C@H]1C(=O)N[C@H](C(=O)N[C@@H](CC(N)=O)C(=O)N[C@H](C(=O)NCC(=O)N[C@@H](CO)C(=O)N[C@@H](CC(N)=O)C(=O)N[C@H](C(=O)N[C@@H](Cc1ccc(O)cc1)C(N)=O)[C@@H](C)O)C(C)C)[C@@H](C)O` [pramlintide], the half-life result was “approximately 48 minutes”.
